From PubChem BioAssay AID1515 (The Scripps Research Institute Molecular Screening Center, 2009) come the findings set out here.

By UniProt entry, the sequences of proteins in these tests, tags left out. Where a name states a change or a piece, a line headed by the entry shows the natural chain unless it says otherwise.
UniProt O75884: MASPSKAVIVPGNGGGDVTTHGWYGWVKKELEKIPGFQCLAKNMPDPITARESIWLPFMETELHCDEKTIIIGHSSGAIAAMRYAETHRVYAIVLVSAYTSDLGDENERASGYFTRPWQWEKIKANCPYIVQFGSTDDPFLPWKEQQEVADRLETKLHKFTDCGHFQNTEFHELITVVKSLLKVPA

A word on the inhibition: it is the change of the read-out against control, counted positive when it falls.

The list shows a part of the results, in another mix than the full data. Activity calls are given as the source filed them.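 How the source made its calls: active means inhibition above the campaign mean of all tested compounds plus 3 SD (cut at about 14% in these data); inactive means the rest.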

In this test the target is Serine hydrolase RBBP9 (Homo sapiens) (UniProt O75884). Nature of the test: blockers of RBBP9 serine hydrolase labeling – biochemical, fluorescence polarization, FP-Rh probe, HTS, primary screen (AID 1515).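 Further: plate controls were DMSO wells with RBBP9 for no effect and wells lacking RBBP9 protein for full effect.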 To be noted: recombinant RBBP9, FP-Rh probe fluorescence polarization; at 7.94 µM; active compounds read high.
Consider `O=[As](O)(c1ccccc1Br)c1ccccc1Br`, for which the inhibition was inactive: -6.38%.

With `CC(C)(C)C(=O)NC(Sc1ncccn1)C(Cl)(Cl)Cl` (stereo not drawn), the inhibition is inactive: -0.08%.

On to `Clc1n[nH]nc1-c1nn[nH][15n]1`, for which the inhibition is inactive: -11.2%.

For the compound `O=P1(Nc2ccccn2)COc2ccccc2OC1`, the inhibition is inactive: 0.46%.

For `CCOP(=O)(Nc1ccc(C)cn1)OCC`, the inhibition was inactive: -1.4%.

With `CCOP(=O)(Nc1cccc2ccccc12)OCC`, the inhibition is inactive: -4.25%.

For `COc1cc(C2NCCC3(OCCO3)C2(C)C)cc(OC)c1OC` (stereo not drawn), the inhibition was inactive: -2.59%.

Regarding `Cc1ccc(NCCc2c([N+](=O)[O-])cc([N+](=O)[O-])cc2[N+](=O)[O-])cc1`, the inhibition is inactive: 0.34%.

In the case of `Nc1cccc2c([As](=O)(O)O)cccc12`, the inhibition was inactive: 1.87%.

`CCCOP(=S)(Nc1nc(N)cc(=O)[nH]1)OCCC`: the inhibition was inactive: 10.1%.

Consider `O=[As](O)(c1cccc(O)c1)c1cccc(O)c1`, for which the inhibition is inactive: -2.53%.

Regarding `Cc1cccc(OCC(=O)OC2CN3CCC2CC3)c1` (stereo not drawn), the inhibition is inactive: 0.84%.

Consider `O=C(OC1CN2CCC1CC2)c1ccc(Cl)cc1` (stereo not drawn), for which the inhibition was inactive: 4.4%.

With `COc1cc(C(=O)NCC2(N3CCOCC3)CCCCC2)cc(Cl)c1OC(C)C`, the inhibition was inactive: -7.17%.

With `O=[As](O)(O)c1cccnc1`, the inhibition was inactive: -10.5%.

As for `CCOP1(=S)c2c(C)nn(CCC#N)c2N=C(c2ccc(F)cc2)N1C` (stereo not drawn), the inhibition was inactive: 1.66%.

On to `O=[N+]([O-])c1ccc2c(c1)nnn2O`, for which the inhibition is inactive: -2.51%.

In the case of `Nc1ccccc1[As](=O)(O)c1ccccc1`, the inhibition was inactive: -8.82%.

Turning to `O=C(O)COc1ccc([As](=O)(O)O)cc1[N+](=O)[O-]`, the inhibition was inactive: 5.9%.

As for `O=P(Nc1nccs1)(c1ccccc1)c1nc2ccccc2s1` (stereo not drawn), the inhibition is inactive: -7.02%.

Take `O=P(Nc1nccs1)(Oc1ccccc1)Oc1ccccc1`: the inhibition is inactive: -9.54%.

Take `CCOP1(=S)c2c(C)nn(CCC#N)c2N=C(c2ccccc2F)N1C` (stereo not drawn): the inhibition was inactive: -7.25%.

As to `CS(=O)(=O)c1cc([N+](=O)[O-])c2no[n+]([O-])c2c1`, the inhibition is active: 26.1%.
